Target: Mu-type opioid receptor (Mus musculus, UniProt P42866)
Assay: Opioid binding affinity was evaluated using [3H]DAMGO as radioligand

Sequences of proteins named here, by UniProt entry; tags and fusion partners are left off.
UniProt P42866, whole entry, looked up: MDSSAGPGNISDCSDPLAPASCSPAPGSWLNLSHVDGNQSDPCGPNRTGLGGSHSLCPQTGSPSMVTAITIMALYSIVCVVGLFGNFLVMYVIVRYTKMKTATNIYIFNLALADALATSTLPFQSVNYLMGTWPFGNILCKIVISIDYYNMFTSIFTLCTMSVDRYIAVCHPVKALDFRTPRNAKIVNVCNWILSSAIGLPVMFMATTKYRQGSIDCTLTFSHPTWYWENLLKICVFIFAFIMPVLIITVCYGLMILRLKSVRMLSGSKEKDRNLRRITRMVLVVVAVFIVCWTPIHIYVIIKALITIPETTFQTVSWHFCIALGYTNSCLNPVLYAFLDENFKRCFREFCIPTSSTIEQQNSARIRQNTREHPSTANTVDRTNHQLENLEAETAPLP

Molecule `CCOC(=O)C1(c2ccccc2)CCNCC1` has a Ki of 1300 nM.

— ChEMBL document CHEMBL1130962, “Selective alpha-1a adrenergic receptor antagonists. Effects of pharmacophore regio- and stereochemistry on potency and selectivity” (Bioorg Med Chem Lett, 1998)
